# “Also recorded” adds a separate entry of the source.
# System: salivary glands
# Assay: Salivary gland fibrosis quantification (Masson's trichrome, blue:red pixel ratio)
# Assay type: in vivo, C57B1/6 mice
# Details: 12 weeks post-RT (9 Gy); MnBuOE+RT at all levels of MnBuOE; vs control animals without RT
substance,measurement,value
manganese butoxyethyl pyridyl porphyrin [BMX-001],fibrosis in the salivary glands (blue:red pixel ratio),not significantly different; also recorded: attenuates fibrosis

# — US12171769B2, “Methods, compositions, and kits for treating and/or preventing a side effect associated with radiation and/or chemotherapy exposure” (BioMimetix JV, LLC, priority 2017, dated 2024)
